Data on one molecule can be found in patent publication US20240125678A1, “COMPOUND, CELLULAR VESICLE STAIN, AND METHOD FOR FLUORESCENT STAINING OF CELLULAR VESICLES” (National University Corporation Tokai National Higher …, priority 2021, published 2024).

The test concerns living and dead B16F10 cells. The test is described as follows: Fluorescence intensity measurement on living cells and dead cells. As to conditions: B16F10, 5×10^4 cells/100 μL, 1 μM, excitation 488 nm, dead cells by 30% ethanol.

On to `CNc1ccc([N+](=O)[O-])c2nonc12`, for which the “difference of fluorescence intensity between living cells and dead cells” value is given as “small”.
